{"source": "ChEMBL document CHEMBL4392829", "about": "“Synthesis and biological evaluation of 3-substituted 2-oxindole derivatives as new glycogen synthase kinase 3β inhibitors” (Bioorg Med Chem, 2019)", "species": "Homo sapiens", "assay": "Selectivity ratio of IC50 for human A549 cells to IC50 for recombinant human GSK3beta", "data": [{"smiles": "O=C1Nc2ccccc2/C1=C/c1ccccn1", "values": [{"measurement": "Ratio IC50", "value": 1000}]}]}
